Literature values, collected in patent US20100226991A1, “SOLID INORGANIC/ORGANIC HYBRID WITH MODIFIED SURFACE” (CENTRE NATIONAL DE LA RECHERCHE SCIENTIFIQUE - CNRS-, priority 2007, published 2010).

Settings: in ethanol and in DMSO; cited from earlier work

Paclitaxel
solubility: about 50 g/L
